Assay [1] has as its system HHD-transfected RMA-S cells loaded with relevant peptide. Description: CTL response of A2A2Kb mice injected s.c. with tumor epitopic peptide in IFA (51Cr-release assay). It is filed as in vivo. The note with it: responder = at least 10% specific lysis.
For assay [2], the system named is HHD-transfected RMA-S target cells loaded with relevant peptide. The assay can be described thus: CTL response of HHD mice co-immunized in IFA with tumor peptide and HBVc.128 helper peptide. The format is in vivo. The settings on record: 50 μg CD8 peptide + 140 μg HBVc.128 helper in IFA.
For assay [3], the system named is HHD-transfected RMA-S cells loaded with relevant peptide. Description: CTL response of HHD mice injected s.c. with tumor epitopic peptide in IFA (51Cr-release assay). The format is in vivo.
Assay [4] deals with peptide-loaded HHD-transfected RMA-S cells and HHD-transfected HeLa cells expressing the polyepitope. Description: Melanoma polyepitopic pCMV-B10 DNA immunization of HHD mice, CTL assay. The format is in vivo. The note with it: pCMV-B10 DNA with 10 melanoma epitopes, FIG. 1C and D.
In assay [5] the test system is peptide-pulsed HHD-transfected RMAS cells. It is filed as in vivo, HHD mice. The settings on record: with helper peptide; each responder mouse.
For assay [6] the test system is unchanged. The format is in vivo, HHD mice. The note with it: for classification as immunogen: by number of responder mice and strength of responses, peptide in IFA; for Responder/tested mice: without helper peptide, 100 μg peptide s.c. in IFA.

On to AAGIGILTV [Melan-A/MART-1.27], for which the “R/T (responder versus tested mice)” value in assay [1] is reported as 0/6; in assay [2], 4/5; in assay [3] (peptide s.c. in IFA, no helper, responder = at least 10% specific lysis) it was 2/8. Besides, in assay [3] (peptide alone in IFA, by number of responding mice and level of specific lysis), the “hierarchy of CTL inducers” value is “weak”. For the same sequence, the “CTL response against the epitope after melanoma polyepitope DNA immunization (in words)” value in assay [4] (listed as Melan-A/MART.1,27) is listed as “did not elicit CTL responses”; in assay [4] (listed as Melan-A/MART.1.27), “Significant responses”.

“AKTPLCVTL (KLTPLCVTL) [K9L/T, HIV 1 ENV gp120 (120-128) CD8 epitopic peptide, T variant]”: the “Maximal specific lysis (%)” value in assay [5] was determined as 27%. In addition, in assay [6], the classification as immunogen entry was “inefficient” and the Responder/tested mice is listed as 0/6.

As for “SLYNTVATL [S9L, HIV 1 GAG p17 (77-85) CD8 epitopic peptide]”, in assay [6], the classification as immunogen entry was “strong” and the Responder/tested mice was 4/5.

These data come from patent publication US20020164721A1, “Design of a polyepitopic construct for the induction of HLA-A2.1 restricted HIV 1 specific CTL responses using HHD mice” (priority 1999, published 2002).
